Results on 25 compounds are retold here after PubChem BioAssay AID504490 (NMMLSC, 2011).

The list shows a part of the results, in another mix than the full data. Some of these compounds have results that are not shown, active ones among them. Calls of active or inactive are those of the source.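 How the source made its calls: active means inhibition above a set limit, near 3 SD of compounds lacking own fluorescence (cut at about 54% in these data); inactive means the rest.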

This assay has as its system beta-arrestin 1 C-terminal peptide binding to AP2 beta2-adaptin appendage (human). As to the kind of experiment: inhibitors of beta-arrestin/AP2 binding, primary screen, biochemical, GPCR trafficking, flow cytometry (AID 504490).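 Further: plate controls were DMSO wells for no effect and 5 µM unlabelled arrestin peptide for full effect.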 The following applies: FITC-arrestin peptide / GST-AP2 beads, at 10 µM, stronger effect = higher value, AP2 beta2 appendage carries R879A mutation.
One may read the inhibition as the change of the read-out against control, counted positive when it falls. In the case of `Cc1ccccc1C(=O)NCC1(N2CCCCC2)CCCCC1`, the inhibition was inactive: -2.78%.

On to `CN(C)C1CCCC1OC(=O)C(O)(c1ccccc1)c1ccccc1` (stereo not given), for which the inhibition is inactive: 4.56%.

Take `CN(C)c1ccc(C(=O)NCC2(N(C)C)CCCCC2)cc1`: the inhibition is inactive: 26.6%. Regarding `C=CCN1CCN(CCOC(=O)C(O)(c2ccccc2)c2ccccc2)CC1`, the inhibition was inactive: -7.46%. For `O=C(NCC1(N2CCCCC2)CCCCC1)c1cc(F)c(F)cc1Cl` the value was inactive: -7.76%; for `Cc1cc(C(=O)NCC2(N3CCCCC3)CCCCC2)ccc1[N+](=O)[O-]`, inactive: -8.54%; for `CCN1CCCC(OC(=O)C2(O)c3ccccc3C=Cc3ccccc32)C1` (stereo not given), inactive: -4.2%.

In the case of `O=C(NCC1(N2CCCCC2)CCCCC1)c1cccc(Br)c1`, the inhibition was inactive: 12.8%. Next, `COc1ccc(C(=O)NCC2(N(C)C)CCCCC2)cc1`: inactive: -6.4%. As for `O=C(NCC1(N2CCCCC2)CCCCC1)c1cc([N+](=O)[O-])ccc1Cl`, the inhibition is inactive: -11.1%. Regarding `CN1[C@@H]2CC[C@H]1CC(OC(=O)C(O)(c1ccccc1)c1ccccc1)C2` (stereo not given in full), the inhibition was inactive: -2.4%. On to `CC(C)N1C(=O)CC2(CCN(CCOC(=O)C(O)(c3ccccc3)c3ccccc3)CC2)C1=O`, for which the inhibition is inactive: -8.49%. For `CCN(CC)CC(C)C(C)OC(=O)C(O)(c1ccccc1)c1ccccc1` (stereo not given) the value was inactive: 24.5%; for `COc1cc(SC)ccc1C(=O)NCC1(N(C)C)CCCCC1`, inactive: 25.9%; for `Cc1ccc(C(=O)NCC2(N3CCCCC3)CCCCC2)cc1`, inactive: -5.84%. For the compound `O=C(OC1CN2CCC1CC2)C(CO)(c1ccccc1)c1ccccc1` (stereo not given), the inhibition is inactive: -123%. In the case of `COc1ccc(Br)c(C(=O)NCC2(N3CCCCC3)CCCCC2)c1`, the inhibition is inactive: 13%.

Regarding `CN(C)c1cccc(C(=O)NCC2(N(C)C)CCCCC2)c1`, the inhibition was inactive: 17.4%.

For `CC(C)Oc1ccc(C(=O)NCC2(N(C)C)CCCCC2)cc1`, the inhibition was inactive: 33.1%. For `O=C(OCCN1CCCC1)C(O)(c1ccccc1)c1ccccc1`, the inhibition was inactive: 9.83%.

On to `CN(C)C1(CNC(=O)c2ccc(Br)cc2)CCCCC1`, for which the inhibition is inactive: -2.4%. Next, `COc1cc(C(=O)NCC2(N(C)C)CCCCC2)c([N+](=O)[O-])cc1OC`: inactive: -7.99%; `COc1cccc(C(=O)NCC2(N3CCCCC3)CCCCC2)c1`: inactive: -14.1%; `COc1ccc(Cl)cc1C(=O)NCC1(N(C)C)CCCCC1`: inactive: 6.28%. As to `O=C(NCC1(N2CCCCC2)CCCCC1)c1cccc(Cl)c1`, the inhibition is inactive: 10.8%.
